Test results as given in patent US20150064172A1, “METHODS OF TREATING A DISEASE OR DISORDER ASSOCIATED WITH BRUTON'S TYROSINE KINASE” (Celgene Avilomics Research, Inc., priority 2013, published 2015).

The chains behind the UniProt entries cited, without tags or fusion partners. Where a name states a change or a piece, a line headed by the entry shows the natural chain unless it says otherwise.
UniProt Q06187: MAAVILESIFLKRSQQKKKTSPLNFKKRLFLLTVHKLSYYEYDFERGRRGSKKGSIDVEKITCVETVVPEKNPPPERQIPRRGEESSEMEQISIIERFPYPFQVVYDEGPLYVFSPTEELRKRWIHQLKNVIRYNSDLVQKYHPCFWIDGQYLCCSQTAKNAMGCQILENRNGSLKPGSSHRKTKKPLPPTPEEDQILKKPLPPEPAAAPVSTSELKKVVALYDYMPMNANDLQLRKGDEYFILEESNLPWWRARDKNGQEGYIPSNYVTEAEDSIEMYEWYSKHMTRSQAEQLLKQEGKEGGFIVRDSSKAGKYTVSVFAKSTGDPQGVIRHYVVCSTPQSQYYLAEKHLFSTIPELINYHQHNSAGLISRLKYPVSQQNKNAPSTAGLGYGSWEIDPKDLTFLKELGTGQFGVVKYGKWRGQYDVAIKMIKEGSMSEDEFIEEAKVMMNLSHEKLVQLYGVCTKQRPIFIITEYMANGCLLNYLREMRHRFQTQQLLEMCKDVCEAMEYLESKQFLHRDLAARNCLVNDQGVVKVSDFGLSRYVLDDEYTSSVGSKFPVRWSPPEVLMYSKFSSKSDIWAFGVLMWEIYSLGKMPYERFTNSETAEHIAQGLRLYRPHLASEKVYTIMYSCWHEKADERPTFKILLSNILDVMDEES

Experiments:
BTK [1] = biological target: T1, BTK (Homo sapiens, UniProt Q06187); assay: Phosphorylation of Btk (Tyr223) and PLCγ2 (Tyr1217) in Ramos cells; type: cell-based
BTK [2] = biological target: T1, BTK; assay: biochemical

Row | Compound | EC50 (BTK [1]) | IC50 (BTK [2])
1 | C=CC(=O)Nc1cccc(Nc2nc(Nc3ccc(OCCOC)cc3)ncc2F)c1 [Compound 1, N-(3-(5-fluoro-2-(4-(2-methoxyethoxyl)phenylamino)pyrimidin-4-ylamino)phenyl)acrylamide] | 1 to 10 nM | –
2 | C=CC(=O)Nc1cccc(Nc2nc(Nc3ccc(OCCOC)cc3)ncc2F)c1.O=S(=O)(O)c1ccccc1 [Compound 1 besylate, N-(3-(5-fluoro-2-(4-(2-methoxyethoxyl)phenylamino)pyrimidin-4-ylamino)phenyl)acrylamide benzenesulfonic acid salt] | – | < 0.5 nM
